Measured values reported in PMC4323687 (Neurobiology of disease, 2014).

How the values were obtained:
[1] = test system: mThy1-hAPP751 APPtg mouse model of AD; experiment: Aβ immunostaining of plaques in frontal cortex and hippocampus of APPtg mice; type: in vivo; settings: same treatments as E16
[2] = test system: mThy1-hAPP751 APPtg mouse model of AD; experiment: Electron microscopy of neuropil and amyloid in APPtg mouse brain; type: in vivo; settings: same treatments as E16
[3] = test system: mThy1-hAPP751 APPtg mouse model of AD; experiment: Immunohistochemistry of synaptophysin, MAP2, NeuN and GFAP in APPtg mouse brain; type: in vivo
[4] = test system: primary cortical neurons; settings: 0.5, 5, 10, 20 and 50 μM, 24 hours, MTT

Oc1c(Cl)cc(Cl)c(Cl)c1Cc1c(O)c(Cl)cc(Cl)c1Cl [hexachlorophene]
Aβ42-immunoreactivity in the hippocampus (% area of neuropil) vs vehicle APPtg [1]: high Aβ42-immunoreactivity
amyloid fibrils in neuropil by electron microscopy [2]: abundant fibrils and plaques
status of axons/neurites in neuropil by electron microscopy [2]: abnormal dystrophic neurites were found
synapse loss (SYN-immunoreactivity) in the frontal cortex ([3]; vs APPtg mice treated with PBS): significantly reversed
synapse loss (SYN-immunoreactivity) in the hippocampus ([3]; vs APPtg mice treated with PBS): significantly reversed
MAP2 immunoreactivity (neuronal damage) in the frontal cortex ([3]; vs vehicle-treated APPtg mice): reversion of the damage
NeuN immunoreactivity in the frontal cortex ([3]; vs vehicle-treated APPtg mice): increase
effect of compound alone on cellular viability of neurons [4]: significant reduction of the cellular viability only at high concentrations
